Reference: article PMC10741027, “Risk Assessment of Psychotropic Drugs on Mitochondrial Function Using In Vitro Assays” (Biomedicines, 2023)

Tested on: rat liver mitochondria (CII-linked respiration)
Test: High-resolution respirometry, MMP and ROS in isolated rat liver mitochondria (Oroboros O2k)
Format: biochemical

Cc1cc2c(s1)Nc1ccccc1N=C2N1CCN(C)CC1 [Olanzapine]
Mode of action on respiration in isolated RLM (in words): did not affect respiration
